Measured values reported in patent publication US10280170B2, “Substituted 4,5,6,7-tetrahydro-pyrazolo[1,5-a]pyrazine derivatives and 5,6,7,8-tetrahydro-4H-pyrazolo[1,5-a][1,4]diazepine derivatives as Ros1 inhibitors” (Janssen Pharmaceutica NV, priority 2014, dated 2019).

Protein sequences, listed by entry. Tags and fused reporters are not part of them. Residues count along the entry.
UniProt P08922, whole entry: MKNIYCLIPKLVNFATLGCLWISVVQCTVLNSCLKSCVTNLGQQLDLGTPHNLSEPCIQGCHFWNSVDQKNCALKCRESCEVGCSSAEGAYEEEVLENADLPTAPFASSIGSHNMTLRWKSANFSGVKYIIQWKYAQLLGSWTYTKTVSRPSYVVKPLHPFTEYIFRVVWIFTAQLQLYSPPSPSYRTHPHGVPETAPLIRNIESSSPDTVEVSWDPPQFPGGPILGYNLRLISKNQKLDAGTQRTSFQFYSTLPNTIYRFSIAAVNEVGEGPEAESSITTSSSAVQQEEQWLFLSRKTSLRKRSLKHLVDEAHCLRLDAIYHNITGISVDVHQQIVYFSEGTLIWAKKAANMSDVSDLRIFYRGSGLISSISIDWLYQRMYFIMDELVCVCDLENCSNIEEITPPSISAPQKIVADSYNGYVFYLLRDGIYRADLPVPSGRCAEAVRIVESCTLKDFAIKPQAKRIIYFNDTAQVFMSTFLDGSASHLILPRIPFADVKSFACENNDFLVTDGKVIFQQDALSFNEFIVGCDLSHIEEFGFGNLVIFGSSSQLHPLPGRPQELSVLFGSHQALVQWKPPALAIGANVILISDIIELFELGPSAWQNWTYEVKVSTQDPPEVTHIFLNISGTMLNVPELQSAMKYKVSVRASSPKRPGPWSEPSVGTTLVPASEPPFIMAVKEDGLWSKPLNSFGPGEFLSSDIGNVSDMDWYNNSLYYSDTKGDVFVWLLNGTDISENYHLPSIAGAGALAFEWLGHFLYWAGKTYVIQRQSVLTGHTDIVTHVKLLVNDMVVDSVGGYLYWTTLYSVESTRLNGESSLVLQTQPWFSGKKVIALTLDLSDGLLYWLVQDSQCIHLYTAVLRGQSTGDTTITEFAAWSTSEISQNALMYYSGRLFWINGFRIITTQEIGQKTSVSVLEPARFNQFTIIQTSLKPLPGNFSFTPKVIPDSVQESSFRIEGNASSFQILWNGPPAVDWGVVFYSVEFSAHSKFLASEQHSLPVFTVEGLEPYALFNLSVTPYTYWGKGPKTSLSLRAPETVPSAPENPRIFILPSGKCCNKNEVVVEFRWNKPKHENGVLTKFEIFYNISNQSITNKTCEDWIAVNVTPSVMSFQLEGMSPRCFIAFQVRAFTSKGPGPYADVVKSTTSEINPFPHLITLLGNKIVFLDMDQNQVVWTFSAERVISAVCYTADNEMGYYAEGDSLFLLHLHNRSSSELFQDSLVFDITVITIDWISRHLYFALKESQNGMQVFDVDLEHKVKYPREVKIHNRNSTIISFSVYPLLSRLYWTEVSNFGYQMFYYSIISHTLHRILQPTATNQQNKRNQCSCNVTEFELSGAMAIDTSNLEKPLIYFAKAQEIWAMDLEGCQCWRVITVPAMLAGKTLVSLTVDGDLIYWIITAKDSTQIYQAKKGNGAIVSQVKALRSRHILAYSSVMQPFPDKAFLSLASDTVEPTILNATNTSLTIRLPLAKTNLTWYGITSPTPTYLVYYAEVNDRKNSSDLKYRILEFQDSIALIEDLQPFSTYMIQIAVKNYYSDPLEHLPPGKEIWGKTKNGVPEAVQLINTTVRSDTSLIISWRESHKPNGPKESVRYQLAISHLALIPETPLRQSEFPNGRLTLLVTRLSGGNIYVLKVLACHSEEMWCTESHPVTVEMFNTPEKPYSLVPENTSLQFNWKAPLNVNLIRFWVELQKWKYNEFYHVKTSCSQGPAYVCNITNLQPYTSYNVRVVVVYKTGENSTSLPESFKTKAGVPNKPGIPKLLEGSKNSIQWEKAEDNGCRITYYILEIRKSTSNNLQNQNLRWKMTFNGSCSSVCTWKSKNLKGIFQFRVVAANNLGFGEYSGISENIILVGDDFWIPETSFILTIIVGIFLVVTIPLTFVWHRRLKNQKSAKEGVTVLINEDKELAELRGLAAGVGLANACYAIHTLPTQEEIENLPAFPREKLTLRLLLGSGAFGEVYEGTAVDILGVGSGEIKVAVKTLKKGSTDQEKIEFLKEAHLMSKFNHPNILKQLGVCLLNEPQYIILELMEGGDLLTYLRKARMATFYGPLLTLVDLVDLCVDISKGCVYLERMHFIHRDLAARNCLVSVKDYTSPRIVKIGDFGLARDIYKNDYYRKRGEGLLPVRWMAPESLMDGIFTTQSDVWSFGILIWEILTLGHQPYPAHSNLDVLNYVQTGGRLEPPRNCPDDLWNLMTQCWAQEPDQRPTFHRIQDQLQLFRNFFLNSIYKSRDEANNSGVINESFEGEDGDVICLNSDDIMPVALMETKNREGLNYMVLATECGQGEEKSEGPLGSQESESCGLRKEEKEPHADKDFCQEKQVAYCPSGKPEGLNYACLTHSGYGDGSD
UniProt P08922, 28-2347 limits assumed: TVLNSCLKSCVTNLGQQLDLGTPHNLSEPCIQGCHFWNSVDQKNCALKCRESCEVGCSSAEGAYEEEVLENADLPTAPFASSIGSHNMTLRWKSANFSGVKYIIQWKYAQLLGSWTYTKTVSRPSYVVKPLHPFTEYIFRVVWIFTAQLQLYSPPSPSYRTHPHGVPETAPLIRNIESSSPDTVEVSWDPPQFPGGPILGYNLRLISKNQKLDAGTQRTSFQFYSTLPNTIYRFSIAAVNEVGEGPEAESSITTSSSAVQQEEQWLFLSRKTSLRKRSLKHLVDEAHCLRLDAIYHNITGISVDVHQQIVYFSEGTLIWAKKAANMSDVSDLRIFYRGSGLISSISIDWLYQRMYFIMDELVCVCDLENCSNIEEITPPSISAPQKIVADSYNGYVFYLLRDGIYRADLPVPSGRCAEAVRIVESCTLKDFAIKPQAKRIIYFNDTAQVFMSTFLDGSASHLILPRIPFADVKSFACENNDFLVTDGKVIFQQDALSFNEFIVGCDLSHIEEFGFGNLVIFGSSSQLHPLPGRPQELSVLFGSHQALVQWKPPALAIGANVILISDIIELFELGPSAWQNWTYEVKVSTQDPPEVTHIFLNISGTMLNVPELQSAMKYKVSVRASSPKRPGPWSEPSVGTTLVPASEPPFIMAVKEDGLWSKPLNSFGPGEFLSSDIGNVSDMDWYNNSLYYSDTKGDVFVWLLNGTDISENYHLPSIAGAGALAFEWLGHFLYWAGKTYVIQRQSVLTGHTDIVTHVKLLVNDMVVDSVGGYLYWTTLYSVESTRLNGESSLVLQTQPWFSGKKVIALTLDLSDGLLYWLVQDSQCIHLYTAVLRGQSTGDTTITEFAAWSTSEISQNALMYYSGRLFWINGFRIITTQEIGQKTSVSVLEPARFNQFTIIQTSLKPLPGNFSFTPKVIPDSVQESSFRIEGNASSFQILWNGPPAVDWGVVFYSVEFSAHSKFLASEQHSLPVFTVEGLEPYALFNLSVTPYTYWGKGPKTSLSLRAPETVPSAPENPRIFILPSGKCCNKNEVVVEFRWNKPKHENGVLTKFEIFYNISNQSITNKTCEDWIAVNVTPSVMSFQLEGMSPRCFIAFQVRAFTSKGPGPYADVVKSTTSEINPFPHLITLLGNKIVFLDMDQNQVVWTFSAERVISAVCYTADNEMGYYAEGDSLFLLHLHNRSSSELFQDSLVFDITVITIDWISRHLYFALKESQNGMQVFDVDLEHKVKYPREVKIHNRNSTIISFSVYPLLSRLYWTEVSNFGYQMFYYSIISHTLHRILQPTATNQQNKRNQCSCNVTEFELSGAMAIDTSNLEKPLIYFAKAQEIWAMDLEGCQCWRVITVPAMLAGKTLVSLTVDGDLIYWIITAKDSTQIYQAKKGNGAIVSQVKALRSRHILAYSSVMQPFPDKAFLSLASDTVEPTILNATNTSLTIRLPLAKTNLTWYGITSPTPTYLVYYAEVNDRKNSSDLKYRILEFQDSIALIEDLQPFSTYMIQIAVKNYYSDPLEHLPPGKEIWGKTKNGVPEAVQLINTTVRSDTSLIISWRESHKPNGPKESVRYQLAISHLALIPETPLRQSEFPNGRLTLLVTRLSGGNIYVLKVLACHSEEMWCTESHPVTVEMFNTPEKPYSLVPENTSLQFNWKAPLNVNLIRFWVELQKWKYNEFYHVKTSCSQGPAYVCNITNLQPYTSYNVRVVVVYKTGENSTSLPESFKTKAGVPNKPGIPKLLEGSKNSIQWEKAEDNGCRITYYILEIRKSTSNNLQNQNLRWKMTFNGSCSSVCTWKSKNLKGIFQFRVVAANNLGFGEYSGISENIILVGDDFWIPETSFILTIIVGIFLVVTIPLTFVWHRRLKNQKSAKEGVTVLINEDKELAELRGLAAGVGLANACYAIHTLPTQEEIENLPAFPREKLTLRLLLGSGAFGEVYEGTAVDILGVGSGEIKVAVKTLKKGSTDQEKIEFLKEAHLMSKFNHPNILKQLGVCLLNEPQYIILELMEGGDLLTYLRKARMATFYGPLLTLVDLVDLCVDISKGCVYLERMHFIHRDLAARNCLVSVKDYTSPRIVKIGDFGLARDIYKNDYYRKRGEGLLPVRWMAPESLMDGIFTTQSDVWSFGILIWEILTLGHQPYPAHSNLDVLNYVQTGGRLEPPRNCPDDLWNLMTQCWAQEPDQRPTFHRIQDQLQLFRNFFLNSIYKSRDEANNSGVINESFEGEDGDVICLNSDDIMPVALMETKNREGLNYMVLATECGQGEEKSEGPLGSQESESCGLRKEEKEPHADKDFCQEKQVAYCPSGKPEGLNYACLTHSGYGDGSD

Assays:
[1] = biological target: Ba/F3 cells containing Ros1 wild-type protein (Homo sapiens, UniProt P08922, cells depend on it, form not given); test: Ba/F3-Ros1 cell proliferation assay, wild-type Ros1; assay type: cell-based, murine; conditions: without IL-3
Protocol: Ba/F3-Ros1 Cell Proliferation Assay
(§1) This assay was carried out with Ba/F3 cells containing three different versions of Ros1: the wild-type protein, protein with a mutation at the gatekeeper residue (L2026M), and protein with a mutation identified in a tumor from a patient that became resistant to crizotinib (Xalkori®) treatment (G2032R). Compounds were solubilized in 100% DMSO (dimethyl sulfoxide) and sprayed into polystyrene, tissue culture treated 384-well plates. A 50 μl volume of cell culture medium (phenol red free RPMI-1640, 10% FBS (fetal bovine serum), 2 mM L-Glutamine) containing 20000 Ba/F3-Ros1 cells was added to each well and the plates were placed in an incubator at 37° C. and 5% CO2. After 24 hours, 10 μl of Alamar Blue solution (0.5 mM K3Fe(CN)6, 0.5 mM K4Fe(CN)6, 0.15 mM Resazurin and 100 mM Phosphate Buffer) was added to the wells, incubated for 4 hours at 37° C. and 5% CO2 before RFU's (Relative Fluorescence Units) (ex. 540 nm., em. 590 nm.) were measured in a fluorescence plate reader.

[2] = test system: Ba/F3 cells containing Ros1 wild-type protein + IL-3; test: Ba/F3-Ros1 cell proliferation counter-screen, wild-type protein in the presence of 10 ng/ml murine IL-3; assay type: cell-based
Protocol: as §1
As a counter-screen the same experiment was performed for the wild-type protein in the presence of 10 ng/ml murine IL-3.

[3] = biological target: Ros1 enzyme (Homo sapiens, UniProt P08922); test: Ros1 enzymatic assay; assay type: biochemical
Protocol: Compounds were spotted onto white 384-well Proxiplate plus plates (Perkin Elmer) to which 5 μl of enzyme mix (0.5 μg/ml Ros1 enzyme, 50 mM Tris-HCl pH7.5, 1 mM EGTA, 10 mM MgCl2, 0.01% Tween-20) and 5 μl of substrate mix (6 μg/ml IRS-Tide [American Peptide Company], 20 μM ATP, 13.33 μCi/ml ATP (adenosine 5′-triphosphate) P^33, 50 mM Tris-HCl pH7.5, 1 mM EGTA (ethylene glycol-bis(2-aminoethylether)-N,N,N′,N′-tetraacetic acid), 10 mM MgCl2, 0.01% Tween-20) were added. After incubation for 120 minutes at room temperature, 10 μl of stop reaction buffer (5 mM EDTA, 50 μM ATP, 0.1% BSA (bovine serum albumin), 0.1% Triton X-100, 50 mM Tris-HCl pH7.5, 1 mM EGTA, 10 mM MgCl2, 0.01% Tween-20) containing 2 mg/ml streptavidin coupled polystyrene imaging beads (Amersham Biosciences) was added and incubated for 15 minutes at room temperature. Plates were centrifuged for 3 minutes at 1500 rpm and signals detected in a LEADseeker imaging system (GE).

SMILES: CC(C)(C)OC(=O)NCc1cccc(COc2ccc(-c3c(-c4ccncc4)nn4c3C(=O)NCC4)cc2)c1
- BaF3-ROS1-IL3 pIC50 [1]: 5.7
- BaF3-ROS1 + IL3 pIC50 [2]: <5
- ROS1 pIC50 [3]: 5.4
